Assay results from patent publication US20140294821A1.

What was measured:
[1] = molecular target: human von Willebrand factor, FVIII-free, plasma derived (human) (UniProt P04275); experiment: cell-based or functional assay
[2] = molecular target: human von Willebrand factor, FVIII-free, plasma derived (human) (UniProt P04275); experiment: SPR (BIAcore), hvWf as ligand, FVIII protein as analyte, N=5
[3] = molecular target: human von Willebrand factor, FVIII-free, plasma derived (human) (UniProt P04275); experiment: SPR (BIAcore), single-cycle kinetics 0.13-5.0 nM, plasma derived human vWF immobilized by amine coupling, 1:1 model, N=6
[4] = molecular target: human von Willebrand factor, FVIII-free, plasma derived (human) (UniProt P04275); experiment: SPR (BIAcore), binding to vWF
[5] = molecular target: single chain rFVIIIFc (purified non-processed isoform of rFVIIIFc) (human) [IgG part: P0DOX5]; experiment: cell-based or functional assay
[6] = molecular target: rFVIIIFc (recombinant B-domain deleted human FVIII-Fc monomer hybrid), drug substance (human) (UniProt P00451); experiment: cell-based or functional assay
[7] = molecular target: rBDD FVIII (recombinant B-domain deleted FVIII lacking Fc moieties) (human) (UniProt P00451); experiment: cell-based or functional assay

Which results are given for “single chain rFVIIIFc (purified non-processed isoform of rFVIIIFc) (from UniProt P0DOX5 223-449) (Fc fusion)”?
Coagulation (aPTT) Specific Activity, FVIII and vWF depleted plasma (vWF absent) [1]: 13600 IU/mg; Coagulation (aPTT) Specific Activity, FVIII-depleted plasma (vWF present) [1]: 3110 IU/mg; Coagulation (aPTT) Specific Activity, FVIII/VWF-depleted plasma supplemented with human VWF [1]: 3130 IU/mg; decrease in one-stage clotting assay (APTT) activity in plasma with normal VWF level [1]: 60%; Kd [2]: 1.28 nM; koff [2]: 0.00109 s⁻¹; kon [2]: 866000 M⁻¹ s⁻¹; Kd [3]: 0.31 nM; koff [3]: 0.00084 s⁻¹; kon [3]: 2.7e+06 M⁻¹ s⁻¹; fold of KD against BDD FVIII alone [4]: 2 fold

With “human α-thrombin (from UniProt P00734 328-622) (enzyme)” as the substance, how does the fold of thrombin EC50 for release from vWF against rFVIIIFc [5] read?
The fold of thrombin EC50 for release from vWF against rFVIIIFc was 3 fold.

What about the fold of α-thrombin EC50 for release from VWF against rFVIIIFc and rBDD-FVIII [5] of the same substance?
Its fold of α-thrombin EC50 for release from VWF against rFVIIIFc and rBDD-FVIII is over 3 fold.

What about the thrombin half maximal effective concentration (EC50) for release from immobilized vWF, SPR, 25° C. [5] of the same substance?
Its thrombin half maximal effective concentration (EC50) for release from immobilized vWF, SPR, 25° C. is 12 U/mL.

And the thrombin half maximal effective concentration (EC50) for release from immobilized vWF, SPR, 37° C. [5]?
Its thrombin half maximal effective concentration (EC50) for release from immobilized vWF, SPR, 37° C. is 15 U/mL.

And the α-thrombin EC50 for release of FVIII from immobilized VWF, optical biosensor [5]?
Its α-thrombin EC50 for release of FVIII from immobilized VWF, optical biosensor is 11.7 U/mL.

And the thrombin half maximal effective concentration (EC50) for release from immobilized vWF, SPR, 25° C. [6]?
Its thrombin half maximal effective concentration (EC50) for release from immobilized vWF, SPR, 25° C. is 3.9 U/mL.

And the thrombin half maximal effective concentration (EC50) for release from immobilized vWF, SPR, 37° C. [6]?
Its thrombin half maximal effective concentration (EC50) for release from immobilized vWF, SPR, 37° C. is 4.8 U/mL.

What about the α-thrombin EC50 for release of FVIII from immobilized VWF, optical biosensor [6] of the same substance?
The α-thrombin EC50 for release of FVIII from immobilized VWF, optical biosensor was 3.7 U/mL.

And the thrombin half maximal effective concentration (EC50) for release from immobilized vWF, SPR, 25° C. [7]?
Its thrombin half maximal effective concentration (EC50) for release from immobilized vWF, SPR, 25° C. is 3.3 U/mL.

And the thrombin half maximal effective concentration (EC50) for release from immobilized vWF, SPR, 37° C. [7]?
Its thrombin half maximal effective concentration (EC50) for release from immobilized vWF, SPR, 37° C. is 4 U/mL.

And the α-thrombin EC50 for release of FVIII from immobilized VWF, optical biosensor [7]?
The α-thrombin EC50 for release of FVIII from immobilized VWF, optical biosensor was 3.2 U/mL.
